Earlier results in paper PMC8502442 (Pharmacology Research & Perspectives, 2021).

Details: rat, oral administration; cited from earlier work

S‐^14C‐ofloxacin
radioactivity recovered from bile: approximately 30%
